Measured values: patent US20240139351A1, “TARGETING SYSTEM WITH IMPROVED UPTAKE” (CORETAG IP B.V., priority 2021, published 2024)

Test system: NCI-H69 tumor
Assay: Biodistribution of 111In-radiolabeled compounds in mice bearing NCI-H69 tumors
Excerpt: CORETAG has evaluated the radiolabeling, in vitro binding, pharmacology in tumor animal model, and PET or SPECT imaging with an overall expertise in targeted radiotherapy and companion imaging diagnostic. The aim of this part is to evaluate the biodistribution of the 4 compounds below and compare it to the biodistribution of DOT-AGA-PEG4-CW800 (prior art).
The injected activity was about 9.0 MBq.
The NCI-H69 cell line used is a human small cell lung cancer carcinoma that was
Tumor cells were grown at 37° C. in a humidified atmosphere (5% CO2, 95% air). The culture medium will be RPMI1640 medium containing 10% fetal calf serum. NCI-H69 tumor cells are growing as a cell suspension. For experimental use, tumor cells were harvested by centrifugation. Cells were counted and viability assessed using a 0.25% try-pan blue exclusion assay.
Thirty-one (31) healthy female SWISS Nude (Crl:NU(Ico)-Foxn1nu) mice, 6-8 weeks old at reception, were obtained from Charles River. The injection volume was 100 μl.
Tumors were induced by subcutaneous injection of 2×10^7 NCI-H69 cells in 200 μL of RPMI 1640 into the right flank of 31 female animals in the axis of the heart. NCI-H69 tumor cell implantation was performed 24 to 72 hours after a whole-body irradiation with a gamma-source (2 Gy, 60 Co, BioMep, France). The day of tumor induction is considered as D0.
All imaging experiments were performed on a 4.7T horizontal magnet (PharmaS-can, Bruker Biospin GmbH, Germany) equipped with an actively shielded gradient system. All the MR images were acquired under ParaVision (PV5.1, Bruker Biospin).

DOTAGA-LYS-(PEG4-CW800)2 [component 5]
higher: Radioactivity in blood (comparison between components) (111In label, FIG. 4a,b) | Remaining radioactivity in whole body after 3 h (3 h, comparison between components) | Remaining radioactivity in whole body after 24 h (24 h, comparison between components)
